Values after ≈ are worked out from the molar mass of the structure shown. Read-outs that look alike come from different tables or passages of the source.
Test system: Escherichia coli

## CC[C@H](C)[C@H](NC(=O)[C@H](CCCNC(=N)N)NC(=O)[C@H](CS)NC(=O)[C@@H]1CCCN1C(=O)[C@H](Cc1ccc(O)cc1)NC(=O)[C@@H]1CCCN1C(=O)[C@@H](NC(=O)[C@H](CCC(N)=O)NC(=O)CNC(=O)[C@H](Cc1ccc(O)cc1)NC(=O)[C@H](CCC(=O)O)NC(=O)[C@H](CCCNC(=N)N)NC(=O)[C@H](Cc1c[nH]c2ccccc12)NC(=O)[C@H](C)NC(=O)[C@H](CCCCN)NC(=O)[C@H](Cc1c[nH]c2ccccc12)NC(=O)[C@@H](NC(=O)[C@H](CCCCN)NC(=O)[C@H](CCCNC(=N)N)NC(=O)CNC(=O)[C@@H](NC(=O)[C@H](CCCCN)NC(=O)CNC(=O)[C@@H](NC(=O)[C@H](CCCCN)NC(=O)[C@H](CCCNC(=N)N)NC(=O)CNC(=O)[C@H](CC(C)C)NC(=O)[C@H](CCCCN)NC(=O)[C@H](CCC(N)=O)NC(=O)[C@@H](NC(=O)[C@H](CCCNC(=N)N)NC(=O)[C@H](CCCCN)NC(=O)[C@H](CCCNC(=N)N)NC(=O)[C@@H](NC(=O)[C@H](CCCCN)NC(=O)[C@H](CCCNC(=N)N)NC(=O)[C@H](Cc1ccccc1)NC(=O)[C@H](CCCCN)NC(=O)[C@H](CCCCN)NC(=O)[C@H](CCCNC(=N)N)NC(=O)[C@H](CC(C)C)NC(=O)CN)[C@@H](C)O)[C@@H](C)CC)[C@@H](C)CC)[C@@H](C)O)C(C)C)[C@@H](C)CC)C(=O)O [CAP-11, reference compound]
E. coli IU0342
  Minimal inhibitory concentration: 4 µg/mL (≈ 0.757 µM)
E. coli MC4100
  Minimal inhibitory concentration: 4 µg/mL (≈ 0.757 µM)
